Test results as given in ChEMBL document CHEMBL3612054 (Bioorg Med Chem, 2015).
The source made the active and inactive calls.

Sequences of proteins named here, by UniProt entry; tags and fusion partners are left off. A change or cut given only in a name is not applied to a line headed by its entry.
UniProt P35372, whole entry: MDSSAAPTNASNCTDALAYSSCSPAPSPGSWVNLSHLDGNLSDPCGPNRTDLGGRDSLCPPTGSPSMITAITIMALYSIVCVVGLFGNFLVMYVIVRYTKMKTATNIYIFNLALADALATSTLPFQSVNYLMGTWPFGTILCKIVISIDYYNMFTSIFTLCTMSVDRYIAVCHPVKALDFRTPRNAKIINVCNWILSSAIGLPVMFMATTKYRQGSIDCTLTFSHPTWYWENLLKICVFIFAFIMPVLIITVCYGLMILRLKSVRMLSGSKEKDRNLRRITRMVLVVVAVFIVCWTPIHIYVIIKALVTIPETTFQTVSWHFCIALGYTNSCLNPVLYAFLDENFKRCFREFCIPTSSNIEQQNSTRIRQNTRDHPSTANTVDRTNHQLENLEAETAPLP
UniProt P41145: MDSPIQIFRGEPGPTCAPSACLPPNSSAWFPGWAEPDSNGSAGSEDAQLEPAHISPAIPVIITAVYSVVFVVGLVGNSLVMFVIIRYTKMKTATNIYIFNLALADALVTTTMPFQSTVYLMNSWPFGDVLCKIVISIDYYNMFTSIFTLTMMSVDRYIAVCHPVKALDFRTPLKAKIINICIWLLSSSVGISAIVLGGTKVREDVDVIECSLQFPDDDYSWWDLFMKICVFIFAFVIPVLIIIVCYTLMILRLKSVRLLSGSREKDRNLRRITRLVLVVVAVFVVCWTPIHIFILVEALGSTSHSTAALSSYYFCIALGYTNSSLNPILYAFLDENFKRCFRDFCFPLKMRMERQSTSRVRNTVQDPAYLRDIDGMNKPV
UniProt P41143, whole entry: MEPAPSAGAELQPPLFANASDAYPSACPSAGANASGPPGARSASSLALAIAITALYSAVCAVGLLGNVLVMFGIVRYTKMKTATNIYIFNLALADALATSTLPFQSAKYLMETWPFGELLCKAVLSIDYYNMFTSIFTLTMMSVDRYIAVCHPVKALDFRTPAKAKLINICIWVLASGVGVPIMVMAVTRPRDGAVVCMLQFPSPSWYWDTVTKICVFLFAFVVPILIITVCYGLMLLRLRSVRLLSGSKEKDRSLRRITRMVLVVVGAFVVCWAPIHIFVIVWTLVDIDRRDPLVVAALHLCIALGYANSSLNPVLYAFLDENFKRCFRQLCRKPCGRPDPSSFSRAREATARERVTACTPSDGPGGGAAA

Legend:
Assay type in all cases: functional
[1] = target: Mu-type opioid receptor (Homo sapiens) (UniProt P35372); experiment: Agonist activity at cloned human mu opioid receptor at 10 uM by [35S]GTPgammaS binding assay
[2] = target: Kappa-type opioid receptor (Homo sapiens) (UniProt P41145); experiment: Agonist activity at cloned human kappa opioid receptor at 10 uM by [35S]GTPgammaS binding assay
[3] = target: Delta-type opioid receptor (Homo sapiens) (UniProt P41143); experiment: Agonist activity at cloned human delta opioid receptor at 10 uM by [35S]GTPgammaS binding assay

Measured: Activity

CC(C)[C@@H](CN1CCC(C)(c2cccc(O)c2)CC1)NC(=O)[C@H]1Cc2ccc(O)cc2CN1
inactive: all assays above
